The assay concerns the target D(2) dopamine receptor (Rattus norvegicus, UniProt P61169). Briefly: Tested for binding affinity towards rat striatal D2 receptor using [3H]NPA as radioligand.

Protein sequences, listed by entry. Tags and fused reporters are not part of them.
UniProt P61169, whole entry: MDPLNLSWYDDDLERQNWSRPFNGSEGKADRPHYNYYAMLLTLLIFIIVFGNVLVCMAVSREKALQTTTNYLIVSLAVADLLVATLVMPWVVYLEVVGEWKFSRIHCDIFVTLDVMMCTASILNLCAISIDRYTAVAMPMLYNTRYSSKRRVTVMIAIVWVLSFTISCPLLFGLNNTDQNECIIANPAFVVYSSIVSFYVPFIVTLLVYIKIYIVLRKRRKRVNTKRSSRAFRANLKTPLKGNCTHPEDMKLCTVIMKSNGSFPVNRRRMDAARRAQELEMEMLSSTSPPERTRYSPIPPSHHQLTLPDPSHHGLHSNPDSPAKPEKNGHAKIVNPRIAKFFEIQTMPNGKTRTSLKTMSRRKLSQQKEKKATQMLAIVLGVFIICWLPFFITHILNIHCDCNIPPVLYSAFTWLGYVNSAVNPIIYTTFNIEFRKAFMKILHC

Molecule `CN1CCc2cccc3c2[C@H]1Cc1ccc(O)c(O)c1-3` [APOMORPHINE] gave a Ki of 2.2 nM.

By Ki is commonly meant a measure of affinity in units of concentration, obtained from inhibition or displacement.

These data come from ChEMBL document CHEMBL1127372, “The discovery and structure-activity relationships of 1,2,3,6-tetrahydro-4-phenyl-1-[(arylcyclohexenyl)alkyl]pyridines. Dopamine autoreceptor agonists and potential antipsychotic agents” (J Med Chem, 1994).
